# Measured affinities in a library of Ab-95 light chain variants

From the AlphaSeq antibody data of Engelhart et al. 2022 (doi:10.1038/s41597-022-01779-4), copy in the FLAb collection.

All variants were tested on one target, the spike HR2 peptide PDVDLGDISGINAS (SARS-CoV-2).

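AAYL52 was designed without a model: most single CDR substitutions and a random sample of double and triple ones. AlphaSeq pools MATa yeast showing the antibodies with MATalpha yeast showing the peptide. The frequency of each diploid, read from paired DNA barcodes, reflects how well the two displayed proteins bind. A regression on co-assayed BCL2-family reference pairs converts the normalised counts of each replicate to an apparent Kd. The assay was run in three technical replicates.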

Each scFv is VH, three GGGGS repeats, VL, as in the parent Ab-95, and differs from it in the CDRs of the light chain only.
VH: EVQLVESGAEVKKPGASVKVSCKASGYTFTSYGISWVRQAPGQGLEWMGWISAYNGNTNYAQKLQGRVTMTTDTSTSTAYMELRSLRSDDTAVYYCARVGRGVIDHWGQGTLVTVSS
VL: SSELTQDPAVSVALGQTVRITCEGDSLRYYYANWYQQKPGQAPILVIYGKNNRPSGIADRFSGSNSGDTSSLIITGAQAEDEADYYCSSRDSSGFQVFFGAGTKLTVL

Substitutions are numbered in sequence along the VL above, starting at 1 (not Kabat). Every variant below is changed at S88 of the VL (sequential numbering). Numbers give log10(Kd / nM), so 0 is 1 nM and 3 is 1 µM. Smaller is tighter. A mean of the replicates is given; it leaves out those without a signal. A pair that was not seen in any replicate is written "no signal"; this usually means weak binding, but a binder can also be missed. Entries are sorted by rising average, undetected variants last. Background: pairings of library AAYL52 with three empty control strains gave a value in 28% of cases (median 3.91, 5th percentile 2.90). Values in that range, when seen in few replicates, are hard to tell from nonspecific mating. In this assay the parent's reference entry averaged 2.31; its copy inside this library read 2.25.

The variant E23L S88H S92K gave 1.23 (3 of 3 replicates). The variant R28S S88H gave 1.66 (3 of 3 replicates). The variant S88Y R90H showed 1.69 (3 of 3 replicates). With R28V S88G the result was 1.79 (3 of 3 replicates). The variant S88H F95N gave 2.28 (3 of 3 replicates).

The variant S88G G94K F98Q gave 2.35 (3 of 3 replicates). For S88F, the assay gave 2.62 (3 of 3 replicates). The variant R28T S88H D91R gave 2.67 (3 of 3 replicates). For G24I N52A S88P, the assay gave 2.70 (3 of 3 replicates). For Y31H S88L S92P, the assay gave 2.76 (3 of 3 replicates).

With A32V S88N S92A the result was 2.88 (3 of 3 replicates). With S26A L27V S88G the result was 2.95 (3 of 3 replicates). For K50T S88E G94D, the assay gave 2.97 (2 of 3 replicates). The variant S55T S88A S89H showed 2.99 (3 of 3 replicates). With R53F S88E V97N the result was 3.02 (1 of 3 replicates).

The variant K50L S88E S93A showed 3.26 (3 of 3 replicates). The variant G24H Y30K S88R gave 3.30 (3 of 3 replicates). With K50Q R53Q S88H the result was 3.46 (1 of 3 replicates). The variant Y30N N33G S88H showed 3.51 (3 of 3 replicates). For L27T S88C, the assay gave 3.53 (3 of 3 replicates).

With S26N S88N G94H the result was 3.55 (3 of 3 replicates). The variant N52I P54K S88N gave 3.56 (3 of 3 replicates). With R53S S88I S93R the result was 3.59 (3 of 3 replicates). With G24L K50C S88C the result was 3.64 (2 of 3 replicates). For G24C S88G F95H, the assay gave 3.65 (1 of 3 replicates).

With L27P N52H S88Y the result was 3.66 (2 of 3 replicates). The variant R53P S55F S88M gave 3.77 (2 of 3 replicates). For P54R S88N F95G, the assay gave 3.86 (3 of 3 replicates). The variant K50P S88A V97E gave 3.90 (2 of 3 replicates). For G49H S88T S92Y, the assay gave 3.91 (2 of 3 replicates).

The variant S26M R53A S88W gave 4.15 (1 of 3 replicates). The variant Y29A R53N S88N gave 4.17 (2 of 3 replicates). The variant L27F N33W S88K gave 4.17 (3 of 3 replicates). For G24S A32Q S88T, the assay gave 4.27 (2 of 3 replicates). For N51F S88T F98R, the assay gave 4.33 (2 of 3 replicates).

The variant S88F Q96W V97R gave 4.33 (2 of 3 replicates). For D25K Y29K S88W, the assay gave 4.34 (2 of 3 replicates). For Y31K P54Y S88V, the assay gave 4.71 (2 of 3 replicates). With S26F S88P F95I the result was 4.75 (1 of 3 replicates). With S88H D91K S92L the result was 5.54 (1 of 3 replicates).

The variant G24W S55Y S88G showed no signal (0 of 3 replicates). For L27A G49M S88M, the assay gave no signal (0 of 3 replicates). The variant N33I S88M F98E gave no signal (0 of 3 replicates). The variant G49P S88E F95R gave no signal (0 of 3 replicates). For K50H S88D F98K, the assay gave no signal (0 of 3 replicates).

With S88T S89K F98C the result was no signal (0 of 3 replicates). For K50W S88I R90C, the assay gave no signal (0 of 3 replicates). With Y29C S88L D91S the result was no signal (0 of 3 replicates). For S88D F95E F98A, the assay gave no signal (0 of 3 replicates). For R53T P54L S88K, the assay gave no signal (0 of 3 replicates).

For N33V S88W S92W, the assay gave no signal (0 of 3 replicates). For G49L S88L D91I, the assay gave no signal (0 of 3 replicates).

The closing 6 entries, repeated:

| changes | log10 Kd (nM), mean | detected |
|---|---|---|
| K50W S88I R90C | no signal | 0 of 3 |
| Y29C S88L D91S | no signal | 0 of 3 |
| S88D F95E F98A | no signal | 0 of 3 |
| R53T P54L S88K | no signal | 0 of 3 |
| N33V S88W S92W | no signal | 0 of 3 |
| G49L S88L D91I | no signal | 0 of 3 |